Source: PubChem BioAssay AID1347074 (Center for Chemical Genomics, University of Michigan, 2019)
The list shows a part of the results, in another mix than the full data. Calls of active or inactive are those of the source. No stated cut-off is given here; in the data, active means z-score above about 3 (passing the limit was not always enough); inactive means the rest.

Protein sequences, listed by entry. Tags and fused reporters are not part of them.
UniProt Q9UPY3, whole entry, looked up: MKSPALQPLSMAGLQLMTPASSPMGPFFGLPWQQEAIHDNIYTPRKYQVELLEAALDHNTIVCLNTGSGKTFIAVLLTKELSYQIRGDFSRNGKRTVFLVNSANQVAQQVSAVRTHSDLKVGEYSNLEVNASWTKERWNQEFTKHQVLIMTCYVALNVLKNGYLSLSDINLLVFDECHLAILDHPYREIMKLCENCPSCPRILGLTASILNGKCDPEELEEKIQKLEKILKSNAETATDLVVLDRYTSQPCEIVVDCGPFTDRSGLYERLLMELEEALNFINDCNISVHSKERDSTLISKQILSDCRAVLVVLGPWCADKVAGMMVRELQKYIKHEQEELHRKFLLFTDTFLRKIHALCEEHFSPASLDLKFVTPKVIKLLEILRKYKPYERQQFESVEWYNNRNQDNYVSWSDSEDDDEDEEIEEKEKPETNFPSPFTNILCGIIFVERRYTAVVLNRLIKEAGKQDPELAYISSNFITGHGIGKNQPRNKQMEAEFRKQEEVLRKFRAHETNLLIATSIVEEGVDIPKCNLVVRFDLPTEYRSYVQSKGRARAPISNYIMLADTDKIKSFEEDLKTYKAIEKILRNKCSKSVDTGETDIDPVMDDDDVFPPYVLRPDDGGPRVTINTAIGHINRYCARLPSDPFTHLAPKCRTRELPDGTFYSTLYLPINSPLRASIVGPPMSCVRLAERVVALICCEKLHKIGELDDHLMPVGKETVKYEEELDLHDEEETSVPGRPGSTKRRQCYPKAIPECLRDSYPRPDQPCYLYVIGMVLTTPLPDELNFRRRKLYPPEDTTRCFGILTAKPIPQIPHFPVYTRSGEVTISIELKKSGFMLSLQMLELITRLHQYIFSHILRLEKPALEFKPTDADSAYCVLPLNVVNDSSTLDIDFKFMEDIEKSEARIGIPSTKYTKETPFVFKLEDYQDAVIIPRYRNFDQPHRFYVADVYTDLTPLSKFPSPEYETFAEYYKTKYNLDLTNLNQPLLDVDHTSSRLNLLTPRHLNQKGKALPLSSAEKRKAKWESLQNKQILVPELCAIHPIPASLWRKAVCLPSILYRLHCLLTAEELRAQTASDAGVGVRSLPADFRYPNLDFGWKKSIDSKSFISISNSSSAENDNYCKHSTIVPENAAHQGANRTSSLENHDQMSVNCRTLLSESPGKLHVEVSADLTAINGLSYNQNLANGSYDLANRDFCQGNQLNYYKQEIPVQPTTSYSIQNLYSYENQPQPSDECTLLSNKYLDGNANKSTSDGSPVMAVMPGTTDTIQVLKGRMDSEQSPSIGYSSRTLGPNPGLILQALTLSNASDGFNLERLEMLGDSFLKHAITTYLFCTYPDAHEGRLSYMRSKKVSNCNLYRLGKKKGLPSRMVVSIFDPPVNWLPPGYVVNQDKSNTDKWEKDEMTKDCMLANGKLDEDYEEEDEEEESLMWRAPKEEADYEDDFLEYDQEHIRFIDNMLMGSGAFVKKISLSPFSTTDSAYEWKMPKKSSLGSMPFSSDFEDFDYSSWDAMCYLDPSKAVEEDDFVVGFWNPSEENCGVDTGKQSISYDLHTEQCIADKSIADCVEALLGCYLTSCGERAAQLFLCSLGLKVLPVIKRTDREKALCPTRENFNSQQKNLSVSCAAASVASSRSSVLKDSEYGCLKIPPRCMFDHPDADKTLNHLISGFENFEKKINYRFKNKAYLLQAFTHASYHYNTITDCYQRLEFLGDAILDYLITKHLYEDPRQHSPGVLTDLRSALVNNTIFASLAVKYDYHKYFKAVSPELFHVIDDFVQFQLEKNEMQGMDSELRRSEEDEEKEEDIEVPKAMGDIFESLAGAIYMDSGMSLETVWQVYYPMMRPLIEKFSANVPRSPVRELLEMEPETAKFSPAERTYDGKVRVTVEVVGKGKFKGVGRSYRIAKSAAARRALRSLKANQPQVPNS

These molecules were tested against Endoribonuclease Dicer (Homo sapiens) (UniProt Q9UPY3) (assay: inhibitors of Dicer pre-microRNA processing, primary screen, biochemical, cat-ELCCA, chemiluminescence (AID 1347074;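 further: plate controls were vehicle for no effect and no enzyme for full effect; higher signal means more uncleaved substrate so more Dicer inhibition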)). Settings: cat-ELCCA pre-miR-21 Dicer processing, at 25 µM, hits give high values.

Structure (SMILES) | z-score
Cc1ccccc1NC1CC(C)(C)NC(C)(C)C1 | inactive: -0.68
